US20120172359A1 (NOVARTIS AG, priority 2010, published 2012)

Chains of the proteins cited; added tags and fusions are not shown. Residues count along the entry.
UniProt P56817, 46-457 limits assumed: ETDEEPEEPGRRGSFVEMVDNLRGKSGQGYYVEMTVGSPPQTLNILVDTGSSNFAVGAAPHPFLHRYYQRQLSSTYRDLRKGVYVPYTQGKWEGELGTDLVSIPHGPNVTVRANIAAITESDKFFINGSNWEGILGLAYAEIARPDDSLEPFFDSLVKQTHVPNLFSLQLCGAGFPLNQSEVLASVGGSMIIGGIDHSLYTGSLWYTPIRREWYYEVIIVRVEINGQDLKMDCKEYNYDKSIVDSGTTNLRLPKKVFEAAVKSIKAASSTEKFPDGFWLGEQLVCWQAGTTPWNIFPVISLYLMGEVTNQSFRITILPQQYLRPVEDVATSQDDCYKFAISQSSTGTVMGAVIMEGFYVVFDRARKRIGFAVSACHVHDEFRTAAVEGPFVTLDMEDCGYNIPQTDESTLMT

Target: Human BACE-1 (Homo sapiens, UniProt P56817)
Experiment: Test 1: Inhibition of Human BACE-1
Type: biochemical
Conditions: recombinant BACE-1 (extracellular domain), acetate buffer pH 4.5, 1 hour with test compound at room temperature, fluorescence-quenched peptide substrate

An IC50 of 58 nM was found for `CC1(c2cc(NC(=O)c3ccc(Br)cn3)ccc2F)COCC(N)=N1` (stereo not shown) [Example 60, 5-Bromo-pyridine-2-carboxylic acid [3-(5-amino-3-methyl-3,6-dihydro-2H-[1,4]oxazin-3-yl)-4-fluoro-phenyl]-amide hydrochloride] in this work.

Counter-ions that a name gives are not always drawn.
